From patent publication US20150258192A1, “COMPOSITIONS AND METHODS FOR PREVENTING OR TREATING CHRONIC LUNG ALLOGRAFT DYSFUNCTION (CLAD) AND IDIOPATHIC PULMONARY FIBROSIS (IPF)” (priority 2014, published 2015)

The chains behind the UniProt entries cited, without tags or fusion partners. Where a name states a change or a piece, a line headed by the entry shows the natural chain unless it says otherwise.
UniProt P49840: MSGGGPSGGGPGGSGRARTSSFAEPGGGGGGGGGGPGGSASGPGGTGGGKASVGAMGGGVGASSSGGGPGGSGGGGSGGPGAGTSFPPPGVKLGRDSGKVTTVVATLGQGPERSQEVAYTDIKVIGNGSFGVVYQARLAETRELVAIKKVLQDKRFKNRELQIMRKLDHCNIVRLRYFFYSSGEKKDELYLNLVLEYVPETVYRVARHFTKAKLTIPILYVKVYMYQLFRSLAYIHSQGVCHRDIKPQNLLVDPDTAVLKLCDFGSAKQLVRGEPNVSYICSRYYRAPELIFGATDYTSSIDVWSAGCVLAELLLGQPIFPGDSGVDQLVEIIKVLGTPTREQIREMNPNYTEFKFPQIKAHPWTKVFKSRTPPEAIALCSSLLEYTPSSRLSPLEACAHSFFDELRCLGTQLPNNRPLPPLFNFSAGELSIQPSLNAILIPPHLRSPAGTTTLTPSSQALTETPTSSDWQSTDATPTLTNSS
UniProt Q9H4B4: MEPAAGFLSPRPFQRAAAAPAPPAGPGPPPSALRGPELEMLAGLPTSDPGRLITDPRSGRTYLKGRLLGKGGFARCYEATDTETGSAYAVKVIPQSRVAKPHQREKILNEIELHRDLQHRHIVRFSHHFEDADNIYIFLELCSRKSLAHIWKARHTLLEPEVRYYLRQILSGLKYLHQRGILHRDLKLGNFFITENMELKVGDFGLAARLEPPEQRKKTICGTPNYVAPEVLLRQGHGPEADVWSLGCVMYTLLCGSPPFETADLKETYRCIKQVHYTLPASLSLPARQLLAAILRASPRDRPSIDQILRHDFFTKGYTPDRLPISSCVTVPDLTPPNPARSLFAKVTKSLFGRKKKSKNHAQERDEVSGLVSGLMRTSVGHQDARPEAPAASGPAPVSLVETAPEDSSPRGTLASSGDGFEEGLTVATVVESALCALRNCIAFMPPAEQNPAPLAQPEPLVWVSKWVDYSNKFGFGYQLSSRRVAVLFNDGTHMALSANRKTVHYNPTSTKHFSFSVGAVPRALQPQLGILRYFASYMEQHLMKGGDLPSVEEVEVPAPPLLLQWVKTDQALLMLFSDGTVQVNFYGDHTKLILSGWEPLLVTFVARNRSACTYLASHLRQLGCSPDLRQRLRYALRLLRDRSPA
UniProt P53667: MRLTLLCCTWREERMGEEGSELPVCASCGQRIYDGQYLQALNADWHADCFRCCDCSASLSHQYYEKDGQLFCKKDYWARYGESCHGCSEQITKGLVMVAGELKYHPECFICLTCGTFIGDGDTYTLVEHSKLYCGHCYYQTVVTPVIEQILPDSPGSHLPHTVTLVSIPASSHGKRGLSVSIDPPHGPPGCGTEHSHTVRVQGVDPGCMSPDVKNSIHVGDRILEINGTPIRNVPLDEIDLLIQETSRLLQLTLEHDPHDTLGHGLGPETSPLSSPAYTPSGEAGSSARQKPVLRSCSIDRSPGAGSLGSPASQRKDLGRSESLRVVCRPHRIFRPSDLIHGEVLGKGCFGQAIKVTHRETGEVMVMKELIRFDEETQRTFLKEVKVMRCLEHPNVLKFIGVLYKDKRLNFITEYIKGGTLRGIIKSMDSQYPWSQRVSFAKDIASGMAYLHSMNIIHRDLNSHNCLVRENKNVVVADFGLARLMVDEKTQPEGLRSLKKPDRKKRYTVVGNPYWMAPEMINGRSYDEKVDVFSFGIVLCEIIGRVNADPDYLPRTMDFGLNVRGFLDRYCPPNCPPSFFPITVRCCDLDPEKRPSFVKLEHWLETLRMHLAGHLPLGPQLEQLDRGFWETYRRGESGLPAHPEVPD
UniProt Q9Y5S2: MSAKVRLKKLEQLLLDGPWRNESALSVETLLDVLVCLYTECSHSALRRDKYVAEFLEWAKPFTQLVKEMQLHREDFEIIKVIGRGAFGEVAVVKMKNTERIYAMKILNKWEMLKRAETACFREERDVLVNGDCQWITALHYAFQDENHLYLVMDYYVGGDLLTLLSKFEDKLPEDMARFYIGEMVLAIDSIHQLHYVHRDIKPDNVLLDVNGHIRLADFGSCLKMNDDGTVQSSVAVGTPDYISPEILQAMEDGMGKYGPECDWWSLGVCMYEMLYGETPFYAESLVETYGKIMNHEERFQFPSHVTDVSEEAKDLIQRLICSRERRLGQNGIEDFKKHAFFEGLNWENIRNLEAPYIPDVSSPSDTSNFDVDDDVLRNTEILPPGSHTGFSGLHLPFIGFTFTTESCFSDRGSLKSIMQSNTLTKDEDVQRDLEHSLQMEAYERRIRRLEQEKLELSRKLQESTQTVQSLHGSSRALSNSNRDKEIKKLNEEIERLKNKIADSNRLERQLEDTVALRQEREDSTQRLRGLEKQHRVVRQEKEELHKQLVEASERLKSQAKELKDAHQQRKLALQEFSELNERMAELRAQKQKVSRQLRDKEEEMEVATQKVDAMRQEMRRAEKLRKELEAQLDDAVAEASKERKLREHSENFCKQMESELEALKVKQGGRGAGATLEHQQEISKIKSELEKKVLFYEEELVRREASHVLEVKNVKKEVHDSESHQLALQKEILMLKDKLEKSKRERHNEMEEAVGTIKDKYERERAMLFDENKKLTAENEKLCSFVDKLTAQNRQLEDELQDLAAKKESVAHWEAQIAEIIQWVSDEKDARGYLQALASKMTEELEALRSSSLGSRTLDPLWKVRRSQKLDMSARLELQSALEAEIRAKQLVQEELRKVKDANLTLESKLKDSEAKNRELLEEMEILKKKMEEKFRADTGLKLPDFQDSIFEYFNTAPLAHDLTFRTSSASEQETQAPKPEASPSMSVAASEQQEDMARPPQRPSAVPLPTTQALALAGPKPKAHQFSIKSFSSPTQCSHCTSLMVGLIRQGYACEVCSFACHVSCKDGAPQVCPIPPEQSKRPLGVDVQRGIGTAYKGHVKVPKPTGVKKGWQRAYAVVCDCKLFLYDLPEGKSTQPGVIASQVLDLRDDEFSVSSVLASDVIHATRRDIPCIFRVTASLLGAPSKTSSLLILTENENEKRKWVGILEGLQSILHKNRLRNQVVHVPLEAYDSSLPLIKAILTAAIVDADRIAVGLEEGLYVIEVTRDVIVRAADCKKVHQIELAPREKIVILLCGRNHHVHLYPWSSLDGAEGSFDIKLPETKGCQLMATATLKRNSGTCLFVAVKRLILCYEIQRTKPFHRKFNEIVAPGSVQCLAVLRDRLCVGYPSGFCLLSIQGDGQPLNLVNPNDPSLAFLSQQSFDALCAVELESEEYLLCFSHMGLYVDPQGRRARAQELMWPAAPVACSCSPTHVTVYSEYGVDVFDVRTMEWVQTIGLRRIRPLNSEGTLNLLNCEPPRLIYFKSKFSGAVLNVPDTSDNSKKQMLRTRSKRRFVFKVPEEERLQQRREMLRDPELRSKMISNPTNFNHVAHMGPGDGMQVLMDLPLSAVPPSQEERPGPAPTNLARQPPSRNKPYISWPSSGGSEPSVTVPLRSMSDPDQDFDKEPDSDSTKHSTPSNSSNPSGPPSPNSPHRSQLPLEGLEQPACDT
UniProt Q13043: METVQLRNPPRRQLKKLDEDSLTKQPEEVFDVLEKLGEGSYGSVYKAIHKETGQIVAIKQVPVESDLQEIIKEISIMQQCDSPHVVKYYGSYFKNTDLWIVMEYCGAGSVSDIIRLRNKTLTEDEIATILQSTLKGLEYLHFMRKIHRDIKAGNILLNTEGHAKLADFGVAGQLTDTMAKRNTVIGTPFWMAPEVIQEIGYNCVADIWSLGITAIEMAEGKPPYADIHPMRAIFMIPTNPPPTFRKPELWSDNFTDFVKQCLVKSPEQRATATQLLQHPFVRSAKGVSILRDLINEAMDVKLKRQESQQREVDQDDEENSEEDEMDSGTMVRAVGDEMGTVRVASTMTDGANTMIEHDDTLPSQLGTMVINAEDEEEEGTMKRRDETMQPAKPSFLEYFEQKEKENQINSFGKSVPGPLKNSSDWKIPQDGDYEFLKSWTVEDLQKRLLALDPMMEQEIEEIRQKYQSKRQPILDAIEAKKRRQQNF
UniProt Q9HC98: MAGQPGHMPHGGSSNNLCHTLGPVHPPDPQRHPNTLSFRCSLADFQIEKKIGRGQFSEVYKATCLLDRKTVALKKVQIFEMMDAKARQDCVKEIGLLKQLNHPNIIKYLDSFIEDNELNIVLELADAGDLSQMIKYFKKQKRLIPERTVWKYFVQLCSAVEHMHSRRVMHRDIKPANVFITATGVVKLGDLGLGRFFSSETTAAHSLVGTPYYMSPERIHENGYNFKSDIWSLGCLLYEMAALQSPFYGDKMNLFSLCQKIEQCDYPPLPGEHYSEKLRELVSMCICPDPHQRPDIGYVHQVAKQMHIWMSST
UniProt Q9P286: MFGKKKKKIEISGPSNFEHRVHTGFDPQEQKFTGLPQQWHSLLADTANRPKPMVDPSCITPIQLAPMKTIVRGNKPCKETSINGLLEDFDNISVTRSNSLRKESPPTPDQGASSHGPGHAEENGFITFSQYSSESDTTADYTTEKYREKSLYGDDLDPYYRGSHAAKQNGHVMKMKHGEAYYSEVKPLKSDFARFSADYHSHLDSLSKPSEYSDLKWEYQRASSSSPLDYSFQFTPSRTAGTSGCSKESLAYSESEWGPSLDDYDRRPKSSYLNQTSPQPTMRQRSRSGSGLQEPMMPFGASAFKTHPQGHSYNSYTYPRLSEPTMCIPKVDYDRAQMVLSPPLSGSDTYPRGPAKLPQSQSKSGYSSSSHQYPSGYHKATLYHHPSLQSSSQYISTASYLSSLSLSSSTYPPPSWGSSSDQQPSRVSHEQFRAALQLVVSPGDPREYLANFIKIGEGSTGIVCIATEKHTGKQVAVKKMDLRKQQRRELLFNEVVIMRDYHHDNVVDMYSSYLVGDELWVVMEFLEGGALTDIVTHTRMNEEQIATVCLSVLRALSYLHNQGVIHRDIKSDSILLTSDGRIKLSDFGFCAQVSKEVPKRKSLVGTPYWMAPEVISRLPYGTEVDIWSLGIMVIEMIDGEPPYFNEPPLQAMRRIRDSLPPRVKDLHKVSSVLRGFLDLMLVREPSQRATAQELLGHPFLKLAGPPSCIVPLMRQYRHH
UniProt O15530: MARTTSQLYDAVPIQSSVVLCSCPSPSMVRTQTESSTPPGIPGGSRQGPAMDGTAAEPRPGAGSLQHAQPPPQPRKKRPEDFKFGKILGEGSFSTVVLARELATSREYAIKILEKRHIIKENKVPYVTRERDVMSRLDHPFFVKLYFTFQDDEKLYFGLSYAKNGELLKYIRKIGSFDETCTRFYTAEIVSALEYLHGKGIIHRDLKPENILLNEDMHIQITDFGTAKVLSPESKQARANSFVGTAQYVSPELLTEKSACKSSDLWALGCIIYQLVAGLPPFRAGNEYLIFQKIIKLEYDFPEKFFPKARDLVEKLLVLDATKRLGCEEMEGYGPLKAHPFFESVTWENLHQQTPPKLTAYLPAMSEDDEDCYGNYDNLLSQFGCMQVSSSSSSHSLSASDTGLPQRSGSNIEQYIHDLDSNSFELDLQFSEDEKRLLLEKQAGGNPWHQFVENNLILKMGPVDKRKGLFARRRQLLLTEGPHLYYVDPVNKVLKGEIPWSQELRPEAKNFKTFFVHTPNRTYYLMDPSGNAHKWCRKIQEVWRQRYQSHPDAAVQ
UniProt P07947, whole entry: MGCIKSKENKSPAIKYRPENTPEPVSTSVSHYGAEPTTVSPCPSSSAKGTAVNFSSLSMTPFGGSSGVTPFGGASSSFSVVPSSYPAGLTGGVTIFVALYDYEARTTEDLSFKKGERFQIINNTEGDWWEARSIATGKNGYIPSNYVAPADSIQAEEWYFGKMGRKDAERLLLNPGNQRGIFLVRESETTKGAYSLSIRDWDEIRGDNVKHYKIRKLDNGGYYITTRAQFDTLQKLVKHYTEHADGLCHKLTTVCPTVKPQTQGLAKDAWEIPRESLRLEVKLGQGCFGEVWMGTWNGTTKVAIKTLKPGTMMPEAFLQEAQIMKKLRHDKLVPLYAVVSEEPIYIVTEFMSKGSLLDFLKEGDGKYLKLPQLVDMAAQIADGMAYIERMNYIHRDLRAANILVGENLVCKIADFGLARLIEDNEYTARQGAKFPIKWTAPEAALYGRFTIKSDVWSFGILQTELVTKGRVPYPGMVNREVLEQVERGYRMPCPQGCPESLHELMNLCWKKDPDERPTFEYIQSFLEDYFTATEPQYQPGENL
UniProt P52564: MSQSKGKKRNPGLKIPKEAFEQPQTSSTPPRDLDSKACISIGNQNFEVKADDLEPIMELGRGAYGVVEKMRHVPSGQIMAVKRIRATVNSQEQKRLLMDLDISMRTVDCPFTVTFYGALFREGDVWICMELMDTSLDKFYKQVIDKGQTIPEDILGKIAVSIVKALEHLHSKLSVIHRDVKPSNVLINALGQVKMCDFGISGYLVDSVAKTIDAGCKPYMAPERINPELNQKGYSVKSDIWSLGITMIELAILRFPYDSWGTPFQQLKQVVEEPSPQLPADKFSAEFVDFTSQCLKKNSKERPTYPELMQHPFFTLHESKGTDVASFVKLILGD

Key:
Experiment in all cases: Kinase Profiling Assay
Assay type in all cases: biochemical
Details in all cases: peptide 100 μM
BTK(h) = BTK(h) (Homo sapiens, UniProt Q06187)
Summary of the method: (§1)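 Radiometric filter-binding format: cationic substrate takes up labeled phosphate from ATP unless the inhibitor peptide blocks the kinase. Substrate bound to an anionic filter, scintillation-counted, normalized to 100% activity control. Duplicates; part of a 266-kinase selectivity panel for MK2 peptides.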

CK2α2(h) = CK2α2(h) (Homo sapiens, UniProt P19784)
Summary of the method: as §1

CK1γ1(h) = CK1γ1(h) (Homo sapiens, UniProt Q9HCP0)
Summary of the method: as §1

TLK2(h) = TLK2(h) (Homo sapiens, UniProt Q86UE8)
Summary of the method: as §1

FAK(h) = FAK(h) (Homo sapiens, UniProt Q05397)
Summary of the method: as §1

Met(Y1248D)(h) = target: T1, Met(Y1248D)(h) (Homo sapiens, UniProt P08581, Y1230D)
T1 construct: purchased Millipore
Summary of the method: as §1

SGK2(h) = target: T2, SGK2(h) (Homo sapiens, UniProt Q9HBY8)
T2 construct: purchased Millipore
T2 sequence (Q9HBY8 1-367): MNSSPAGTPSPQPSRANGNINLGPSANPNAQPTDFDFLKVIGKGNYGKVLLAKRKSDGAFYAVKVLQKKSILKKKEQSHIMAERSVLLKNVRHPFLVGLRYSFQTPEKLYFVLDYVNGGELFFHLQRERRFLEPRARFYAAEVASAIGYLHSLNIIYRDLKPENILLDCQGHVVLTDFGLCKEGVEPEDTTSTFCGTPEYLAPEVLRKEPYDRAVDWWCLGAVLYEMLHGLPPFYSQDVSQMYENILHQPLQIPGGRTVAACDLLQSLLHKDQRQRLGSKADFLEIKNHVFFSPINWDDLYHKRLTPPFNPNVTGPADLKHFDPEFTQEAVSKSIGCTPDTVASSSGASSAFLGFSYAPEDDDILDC
Summary of the method: as §1

Abl(Y253F)(h) = Abl(Y253F)(h) (Homo sapiens, UniProt P00519, Y253F)
Summary of the method: as §1

GSK3α(h) = target: T3, GSK3α(h) (Homo sapiens, UniProt P49840)
T3 construct: purchased Millipore
Summary of the method: as §1

CHK1(h) = target: T4, CHK1(h) (Homo sapiens, UniProt O14757)
T4 sequence (O14757 1-476): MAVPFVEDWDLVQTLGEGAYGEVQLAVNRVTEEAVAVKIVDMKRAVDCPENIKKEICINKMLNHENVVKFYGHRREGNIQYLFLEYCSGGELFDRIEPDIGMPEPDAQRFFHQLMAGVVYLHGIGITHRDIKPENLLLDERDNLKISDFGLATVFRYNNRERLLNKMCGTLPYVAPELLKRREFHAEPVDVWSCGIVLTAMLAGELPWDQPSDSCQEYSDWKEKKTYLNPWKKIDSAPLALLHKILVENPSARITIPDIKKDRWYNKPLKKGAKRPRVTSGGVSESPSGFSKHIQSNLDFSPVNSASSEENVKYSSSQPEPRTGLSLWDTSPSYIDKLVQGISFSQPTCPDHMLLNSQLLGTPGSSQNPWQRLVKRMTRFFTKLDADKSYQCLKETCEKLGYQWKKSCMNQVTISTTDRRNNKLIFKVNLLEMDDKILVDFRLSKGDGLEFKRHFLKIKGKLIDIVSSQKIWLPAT
Summary of the method: as §1

ROCK-I(h) = ROCK-I(h) (Homo sapiens, UniProt Q13464)
Summary of the method: as §1

MEK1(h) = target: T5, MEK1(h) (Homo sapiens, UniProt Q02750)
T5 construct: purchased Millipore
Summary of the method: as §1

Plk3(h) = Plk3(h) (Homo sapiens, UniProt Q9H4B4)
Summary of the method: as §1

SAPK2a(h) = target: T6, SAPK2a(h) (Homo sapiens, UniProt Q16539)
T6 construct: purchased Millipore
Summary of the method: as §1

Abl(H396P)(h) = Abl(H396P)(h) (Homo sapiens, UniProt P00519, H396P)
Summary of the method: as §1

LIMK1(h) = target: T7, LIMK1(h) (Homo sapiens, UniProt P53667)
T7 construct: purchased Millipore
Summary of the method: as §1

MRCKβ(h) = target: T8, MRCKβ(h) (Homo sapiens, UniProt Q9Y5S2)
T8 construct: purchased Millipore
Summary of the method: as §1

MST1(h) = target: T9, MST1(h) (Homo sapiens, UniProt Q13043)
T9 construct: purchased Millipore
Summary of the method: as §1

CDK6/cyclinD3(h) = CDK6/cyclinD3(h) (Homo sapiens, UniProt Q00534)
Summary of the method: as §1

NEK6(h) = target: T10, NEK6(h) (Homo sapiens, UniProt Q9HC98)
T10 construct: purchased Millipore
Summary of the method: as §1

Pyk2(h) = Pyk2(h) (Homo sapiens, UniProt Q14289)
Summary of the method: as §1

PAK5(h) = PAK5(h) (Homo sapiens, UniProt Q9P286)
Summary of the method: as §1

Met(M1268T)(h) = target: T11, Met(M1268T)(h) (Homo sapiens, UniProt P08581, M1250T)
T11 construct: purchased Millipore
Summary of the method: as §1

PDK1(h) = PDK1(h) (Homo sapiens, UniProt O15530)
Summary of the method: as §1

Yes(h) = Yes(h) (Homo sapiens, UniProt P07947)
Summary of the method: as §1

MKK6(h) = target: T12, MKK6(h) (Homo sapiens, UniProt P52564)
T12 construct: purchased Millipore
Summary of the method: as §1

Compound | % activity (BTK(h)) [%] | % activity (CK2α2(h)) [%] | % activity (CK1γ1(h)) [%] | % activity (TLK2(h)) [%] | % activity (FAK(h)) [%] | % activity (SGK2(h)) [%] | % activity (Abl(Y253F)(h)) [%] | % activity (GSK3α(h)) [%] | % activity (CHK1(h)) [%] | % activity (ROCK-I(h)) [%] | % activity (MEK1(h)) [%] | % activity (Plk3(h)) [%] | % activity (SAPK2a(h)) [%] | % activity (Abl(H396P)(h)) [%] | % activity (LIMK1(h)) [%] | % activity (MRCKβ(h)) [%] | other results
FAKLAARLYRKALARQLGVAA [MMI-0300] | 102 | 105 | 111 | 114 | 111 |  |  |  |  |  |  |  |  |  |  |  | % activity (Met(Y1248D)(h)): 102%
YARAAARQARAKALNRQLGVA (Mammal) [MMI-0200] |  |  |  |  |  | 119 | 102 | 119 | 115 | 117 | 116 | 107 | 107 | 121 | 109 | 102 | 
CC(C)C[C@H](NC(=O)[C@H](C)NC(=O)[C@H](CCCCN)NC(=O)[C@H](C)NC(=O)[C@H](CCCNC(=N)N)NC(=O)[C@H](C)NC(=O)[C@H](CCC(N)=O)NC(=O)[C@H](CCCNC(=N)N)NC(=O)[C@H](C)NC(=O)[C@H](C)NC(=O)[C@H](C)NC(=O)[C@H](CCCNC(=N)N)NC(=O)[C@H](C)NC(=O)[C@@H](N)Cc1ccc(O)cc1)C(=O)N[C@@H](C)C(=O)N[C@@H](CCCNC(=N)N)C(=O)N[C@@H](CCC(N)=O)C(=O)N[C@@H](CC(C)C)C(=O)NCC(=O)N[C@H](C(=O)N[C@@H](C)C(=O)N[C@@H](C)C(=O)O)C(C)C [MMI-0100] | 112 | 104 | 110 | 113 | 98 | 103 | 104 | 183 | 97 | 99 | 86 | 107 | 110 | 130 | 103 | 103 | % activity (MST1(h)): 85%; % activity (CDK6/cyclinD3(h)): 103%; % activity (NEK6(h)): 109%; % activity (Pyk2(h)): 113%; % activity (PAK5(h)): 97%; % activity (Met(M1268T)(h)): 114%; % activity (PDK1(h)): 144%; % activity (Yes(h)): 49%; % activity (MKK6(h)): 74%
